Laboratory results reported in paper PMC10878397, “Development of Potent Dual BET/HDAC Inhibitors via Pharmacophore Merging and Structure-Guided Optimization” (ACS Chemical Biology, 2024).

Protein sequences, listed by entry. Tags and fused reporters are not part of them.
UniProt Q13547, whole entry: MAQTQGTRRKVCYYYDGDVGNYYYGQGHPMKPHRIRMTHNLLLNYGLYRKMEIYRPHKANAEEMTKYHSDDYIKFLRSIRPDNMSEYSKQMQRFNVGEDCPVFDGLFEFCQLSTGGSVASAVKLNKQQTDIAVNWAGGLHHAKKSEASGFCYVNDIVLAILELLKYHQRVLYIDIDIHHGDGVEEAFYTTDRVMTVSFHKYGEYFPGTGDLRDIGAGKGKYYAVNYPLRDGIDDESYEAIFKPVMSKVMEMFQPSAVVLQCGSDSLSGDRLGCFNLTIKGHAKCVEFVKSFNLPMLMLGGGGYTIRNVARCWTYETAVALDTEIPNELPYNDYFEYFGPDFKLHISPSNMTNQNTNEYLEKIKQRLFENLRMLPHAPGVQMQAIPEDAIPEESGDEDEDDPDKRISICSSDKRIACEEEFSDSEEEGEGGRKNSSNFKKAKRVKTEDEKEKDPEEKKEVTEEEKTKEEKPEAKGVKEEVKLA
UniProt Q92769, whole entry: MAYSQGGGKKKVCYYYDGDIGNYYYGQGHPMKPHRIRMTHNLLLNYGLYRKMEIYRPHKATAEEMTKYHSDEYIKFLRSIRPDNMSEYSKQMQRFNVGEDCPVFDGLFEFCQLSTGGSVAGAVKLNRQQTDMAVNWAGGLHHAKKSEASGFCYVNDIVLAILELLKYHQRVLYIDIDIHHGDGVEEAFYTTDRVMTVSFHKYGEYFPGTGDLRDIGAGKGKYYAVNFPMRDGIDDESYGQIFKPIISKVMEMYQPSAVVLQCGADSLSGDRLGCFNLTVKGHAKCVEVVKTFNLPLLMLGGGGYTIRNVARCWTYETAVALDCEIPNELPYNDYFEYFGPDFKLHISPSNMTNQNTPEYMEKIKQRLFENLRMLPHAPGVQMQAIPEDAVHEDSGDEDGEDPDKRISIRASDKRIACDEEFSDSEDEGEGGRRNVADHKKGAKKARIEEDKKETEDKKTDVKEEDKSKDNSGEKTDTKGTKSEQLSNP

Experiments:
[1] = biological target: HDAC1 (Homo sapiens, UniProt Q13547); assay: NanoBRET target engagement assay (HEK293T); type: cell-based; conditions: read-out: NanoBRET EC50 HDAC1
[2] = biological target: HDAC2 (Homo sapiens, UniProt Q92769); assay: NanoBRET target engagement assay (HEK293T); type: cell-based; conditions: read-out: NanoBRET EC50 HDAC2

Measured: EC50

Cc1sc2c(c1C)C(c1ccc(Cl)cc1)=N[C@@H](CC(=O)OC(C)(C)C)c1nnc(C)n1-2
> 50 µM: [1]; intact cells | [1]; lysed cells (digitonin) | [2]; intact cells | [2]; lysed cells (digitonin)

Read-outs that look alike come from different tables or passages of the source.
